Results taken from PubChem BioAssay AID485297 (National Center for Advancing Translational Sciences (NCATS), 2010).
The entries are a selection whose mix differs from that of the whole data set. Records with an inconclusive call do not appear. Active and inactive are the calls of the source. Calls come from the whole dose curve; as a rule, active = well fitted activation curve with a large enough effect; inconclusive = small, poorly fitted or top-dose-only effect; inactive = no such curve, though single readings can be large or run the other way.

Experiment: qHTS Assay for Rab9 Promoter Activators; note: % of control where 0% means no effect; nearly all actives have a fitted effect of over 60% in size
Settings: Huh7 Rab9 promoter-luciferase reporter, luminescence, 24 h; at 9.22 µM (top of the series)

SMILES | activation, negative = inhibition
CP(=O)(Nc1ccccc1)Oc1ccc(F)cc1 (centres undefined) | inactive: -1.74%
CCCCCOc1ccc(NP(C)(=O)Oc2ccc(Cl)cc2Cl)cc1 (centres undefined) | inactive: 9.02%
CCN(CC)CCCOC(=O)C(O)(c1ccccc1)C1CCCCC1 (centres undefined) | inactive: -13.5%
CCOC(=O)c1ccc(NP(C)(=O)Oc2ccc(F)cc2)cc1 (centres undefined) | inactive: -12%
COc1ccc(OP(C)(=O)Nc2ccc(SC(F)(F)F)cc2)cc1 (centres undefined) | inactive: -0.733%
O=C(OCCN1CCN(CCOCc2ccccc2)CC1)C(O)(c1ccccc1)c1ccccc1 | inactive: 0.227%
CP(=O)(Nc1ccccc1F)Oc1ccccc1 (centres undefined) | inactive: 6.98%
CC(C)c1ccc(OP(C)(=O)Nc2ccc(SC(F)(F)F)cc2)cc1 (centres undefined) | inactive: -1.49%
Cc1ccccc1NP(C)(=O)Nc1ccccc1C | inactive: -10.1%
CP(=O)(Nc1ccc2c(c1)OCCO2)Oc1ccccc1 (centres undefined) | inactive: -3.96%
CCOP(C)(=S)SCC(=O)NC(C)(CC)C(=O)O (centres undefined) | inactive: -2.05%
CP(=O)(Nc1ccc(SC(F)(F)F)cc1)Oc1ccc(F)cc1 (centres undefined) | inactive: 0.216%
O=[N+]([O-])c1ccc(OP2(=O)COCCO2)cc1 (centres undefined) | inactive: 0.414%
Cc1cc(-c2cccc3ccccc23)c(C)cn1.O=[N+]([O-])c1cc([N+](=O)[O-])c(O)c([N+](=O)[O-])c1 | inactive: -8.05%
CN(C)CCOC(=O)C(O)(c1ccccc1)C1CCCCC1 (centres undefined) | inactive: 0.702%
COc1ccc(NP(C)(=O)Oc2ccccc2OC)cc1 (centres undefined) | inactive: 3.18%
COc1ccc(OP(C)(=O)Nc2cccc(Br)c2)cc1 (centres undefined) | inactive: 11.5%
CCOC(=O)c1ccc(NP(C)(=O)Oc2ccc(Cl)cc2)cc1 (centres undefined) | inactive: -5.13%
CP(=O)(OC12CC3CC(CC(C3)C1)C2)OC12CC3CC(CC(C3)C1)C2 | inactive: -3.4%
CN(C)C(=O)c1c([N+](=O)[O-])cc([N+](=O)[O-])cc1[N+](=O)[O-] | inactive: 18.9%
CC(C)(C)c1ccc(OP(C)(=O)O)cc1 | inactive: 17.8%
COc1ccccc1OP(C)(=O)Nc1ccccc1Br (centres undefined) | inactive: -0.361%
CP(=O)(Nc1ccc(Cl)cc1)Oc1ccc(F)cc1 (centres undefined) | inactive: -0.112%
COc1ccccc1OP(C)(=O)Nc1c(C)n(C)n(-c2ccccc2)c1=O (centres undefined) | inactive: 2.39%
O=C(OCCCN1CCCC1)C(O)(c1ccccc1)C1CCCCC1 (centres undefined) | inactive: -5.29%
CP(=O)(Oc1ccccc1)N1CCOC1=O (centres undefined) | inactive: -6.64%
CCc1ccc(OP(C)(=O)Nc2cccnc2)cc1 (centres undefined) | inactive: 0.152%

SMILES | activation, negative = inhibition
CCN(CC)CC(O)COC(=O)C(O)(c1ccccc1)C1CCCCC1 (centres undefined) | inactive: -4.7%
COc1ccc(OP(C)(=O)Nc2ccc(Br)cc2)cc1 (centres undefined) | inactive: -5.74%
CP(=O)(Nc1ccccn1)Oc1ccccc1 (centres undefined) | inactive: -3.63%
COc1ccccc1OP(C)(=O)Nc1ccc(C)cc1C (centres undefined) | inactive: -0.0758%
CCc1ccc(OP(C)(=O)O)cc1 | inactive: -3.58%
O=[N+]([O-])c1cc([N+](=O)[O-])c(Nc2ccccn2)c([N+](=O)[O-])c1 | inactive: -47.3%
Cc1c(NP(C)(=O)Oc2ccc(C(C)C)cc2)c(=O)n(-c2ccccc2)n1C (centres undefined) | inactive: 0.82%
COc1ccc(OP(C)(=O)Nc2ccccn2)cc1 (centres undefined) | inactive: -4.16%
CN(C)CCOC(=O)C(O)(c1ccccc1)C1CCCC1 (centres undefined) | inactive: -3.27%
COc1ccccc1OP(C)(=O)Nc1ccc(Br)cc1 (centres undefined) | inactive: -2.49%
CP(=O)(OCCOc1ccccc1)OCCOc1ccccc1 | inactive: -25.4%
CP(=O)(Nc1ccc(Cl)cc1Cl)Oc1ccccc1 (centres undefined) | inactive: -1.03%
COc1ccccc1OP(C)(=O)Nc1ccc(C)c(C)c1 (centres undefined) | inactive: 1.11%
COc1ccc(OP(C)(=O)Nc2ccccc2Br)cc1 (centres undefined) | inactive: -2.08%
Cc1cc(C)cc(OP(C)(=O)Nc2cccc(C(F)(F)F)c2)c1 (centres undefined) | inactive: -4.69%
Cc1cc(C)cc(OP(C)(N)=O)c1 (centres undefined) | inactive: 3.89%
COc1ccccc1OP(C)(=O)Nc1cc(Cl)ccc1C (centres undefined) | inactive: -5.89%
COc1ccc(OP(C)(=O)Nc2cccc(F)c2)cc1 (centres undefined) | inactive: 3.26%
COc1ccccc1OP(C)(=O)Nc1ccc(C)cc1 (centres undefined) | inactive: -2.99%
Cc1ccc(NP(C)(=O)Oc2ccccc2)c(C)c1 (centres undefined) | inactive: 0.07%
CCOC(=O)c1ccc(NP(C)(=O)Oc2ccccc2)cc1 (centres undefined) | inactive: -0.461%
O=[N+]([O-])c1ccc2c(c1)C=Nc1ccccc1O2 | inactive: -5.53%
CC(C)(C)c1ccc(OP(C)(=O)Nc2ccc(SC(F)(F)F)cc2)cc1 (centres undefined) | inactive: -5.06%
Cc1cccc(C)c1OP(C)(N)=O (centres undefined) | inactive: -0.893%
O=[N+]([O-])c1cc([N+](=O)[O-])c(Nc2cccnc2)c([N+](=O)[O-])c1 | inactive: -2.67%
CCN(CC)CCCOC(=O)C(O)(c1ccccc1)c1ccccc1 | inactive: 3.7%
CCOC(=O)c1ccc(NP(C)(=O)Oc2ccc(OC)cc2)cc1 (centres undefined) | inactive: -0.869%

SMILES | activation, negative = inhibition
CCOP(C)(=S)SCC(=O)NC(C)C(=O)O (centres undefined) | inactive: -5.31%
CCc1ccc(OP(C)(=O)N2CCN(c3ccc([N+](=O)[O-])cc3)CC2)cc1 (centres undefined) | inactive: 0.342%
CP(=O)(NC(=O)Nc1ccccc1)Oc1ccccc1 (centres undefined) | inactive: -0.842%
Cc1cc(C)cc(OP(C)(=O)Nc2ccc(SC(F)(F)F)cc2)c1 (centres undefined) | inactive: -1.8%
Cc1cccc(C)c1OP(C)(=O)Nc1ccc(SC(F)(F)F)cc1 (centres undefined) | inactive: 0.169%
CP(=O)(Nc1ccc(SC(F)(F)F)cc1)Oc1ccc(Cl)cc1 (centres undefined) | inactive: -0.165%
CP(=O)(Oc1ccccc1)OC(c1ccccc1)C(F)(F)F (centres undefined) | inactive: 3.91%
CP(=O)(Nc1ccccc1Br)Oc1ccccc1 (centres undefined) | inactive: 1.2%
COc1ccccc1OP(C)(=O)Nc1ccccc1 (centres undefined) | inactive: -9.25%
CP(=S)(Nn1cnnc1)Oc1ccccc1 (centres undefined) | inactive: -0.641%
CP(=O)(Nc1ccc(SC(F)(F)F)cc1)Oc1ccccc1 (centres undefined) | inactive: -1.73%
CCCOc1ccc(NP(C)(=O)Oc2ccc(Cl)cc2)cc1 (centres undefined) | inactive: -8.1%
COc1ccccc1OP(C)(=O)Nc1c(C)cccc1C (centres undefined) | inactive: -1.48%
CN1CCCCC1COC(=O)C1(O)c2ccccc2CCc2ccccc21 (centres undefined) | inactive: 6.38%
O=[N+]([O-])c1cc([N+](=O)[O-])c(Nc2nnnn2CCO)c([N+](=O)[O-])c1 | inactive: -8.07%
CC1=C2N=C(C=C3N=C(C(C)=C4[N-][C@@](C)([C@@H]5N=C1[C@](C)(CCC(=O)NC[C@@H](C)OP(=O)([O-])O[C@H]1[C@@H](O)[C@@H](n6cnc7cc(C)c(C)cc76)O[C@@H]1CO)[C@H]5CC(N)=O)[C@@](C)(CC(N)=O)[C@@H]4CCC(N)=O)[C@@](C)(CC(N)=O)[C@@H]3CCC(N)=O)C(C)(C)[C@@H]2CCC(N)=O.[C-]#N.[Co+3] | inactive: -18%
Cc1nc2ccc3ccccc3c2s1.O=[N+]([O-])c1cc([N+](=O)[O-])c(O)c([N+](=O)[O-])c1 | inactive: 2.78%
O=[N+]([O-])c1cc([N+](=O)[O-])c(-n2nnc3ccccc32)c([N+](=O)[O-])c1 | inactive: 1.91%
Cc1ccc(C)c(NP(C)(=O)Oc2ccccc2)c1 (centres undefined) | inactive: -2.11%
CP(=O)(Nc1cccc(Br)c1)Oc1ccccc1 (centres undefined) | inactive: 2.7%
Cc1cc(C)cc(OP(C)(=O)Nc2ccccn2)c1 (centres undefined) | inactive: 0.476%
CCOC(=O)c1ccc(NP(C)(=O)Oc2cc(C)cc(C)c2)cc1 (centres undefined) | inactive: -0.387%
Cc1cc(C)cc(OP(C)(=O)Nc2ccc(C)cc2C)c1 (centres undefined) | inactive: -3.97%
COc1ccccc1OP(C)(=O)Nc1cccc(Br)c1 (centres undefined) | inactive: -2.47%
CC1=NCCc2c1[nH]c1ccccc21.O=[N+]([O-])c1cc([N+](=O)[O-])c(O)c([N+](=O)[O-])c1 | inactive: -0.719%
